Results taken from ChEMBL document CHEMBL5126555, “Targeting breast cancer resistance protein (BCRP/ABCG2): Functional inhibitors and expression modulators” (Eur J Med Chem, 2022).

By UniProt entry, the sequences of proteins in these tests, tags left out. Where a name states a change or a piece, a line headed by the entry shows the natural chain unless it says otherwise.
UniProt Q9UNQ0: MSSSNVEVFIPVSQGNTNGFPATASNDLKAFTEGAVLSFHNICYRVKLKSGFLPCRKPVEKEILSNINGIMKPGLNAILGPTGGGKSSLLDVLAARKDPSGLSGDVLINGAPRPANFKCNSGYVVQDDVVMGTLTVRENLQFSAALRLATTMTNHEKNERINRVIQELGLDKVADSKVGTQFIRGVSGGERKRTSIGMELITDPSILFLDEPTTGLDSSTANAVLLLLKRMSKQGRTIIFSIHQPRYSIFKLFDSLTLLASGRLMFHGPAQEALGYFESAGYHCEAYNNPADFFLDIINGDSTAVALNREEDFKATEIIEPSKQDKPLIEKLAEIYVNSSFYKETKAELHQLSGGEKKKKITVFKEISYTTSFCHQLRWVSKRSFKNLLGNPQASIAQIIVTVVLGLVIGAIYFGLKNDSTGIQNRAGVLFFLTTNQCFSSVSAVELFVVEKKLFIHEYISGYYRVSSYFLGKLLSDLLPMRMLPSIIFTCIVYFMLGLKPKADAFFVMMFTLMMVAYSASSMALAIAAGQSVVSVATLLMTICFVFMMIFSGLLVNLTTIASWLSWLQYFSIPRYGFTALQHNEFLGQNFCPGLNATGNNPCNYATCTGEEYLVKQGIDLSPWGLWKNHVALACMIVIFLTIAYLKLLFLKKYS

Tests used:
[1] = target: T1, Broad substrate specificity ATP-binding cassette transporter ABCG2 (Homo sapiens, UniProt Q9UNQ0); experiment: Inhibition of ABCG2 (unknown origin) expressed in human HEK293 cells membrane vesicles assessed inhibition of BCRP- mediated transport of 3[H]-E1S for 1 mins using [3H]-estrone sulfate as substrate by rapid filtration technique; assay type: cell membranes, Membrane vesicle
[2] = target: T1, Broad substrate specificity ATP-binding cassette transporter ABCG2

Row | IC50 [1] | IC50 [2] | Structure (SMILES)
1 | 56 µM |  | CO[C@H]1/C=C/O[C@@]2(C)Oc3c(C)c(O)c4c(O)c(c(/C=N/N5CCN(C)CC5)c(O)c4c3C2=O)NC(=O)/C(C)=C\C=C\[C@H](C)[C@H](O)[C@@H](C)[C@@H](O)[C@@H](C)[C@H](OC(C)=O)[C@@H]1C [RIFAMPIN]
2 |  | 0.5 µM | COc1cc2ncnc(Nc3ccc(F)c(Cl)c3)c2cc1OCCCN1CCOCC1 [GEFITINIB]
